Target: human ERβ (Homo sapiens, UniProt Q92731)
Experiment: competitive radiometric binding assay with [3H]estradiol, ERβ

Chains of the proteins cited; added tags and fusions are not shown.
UniProt Q92731, whole entry: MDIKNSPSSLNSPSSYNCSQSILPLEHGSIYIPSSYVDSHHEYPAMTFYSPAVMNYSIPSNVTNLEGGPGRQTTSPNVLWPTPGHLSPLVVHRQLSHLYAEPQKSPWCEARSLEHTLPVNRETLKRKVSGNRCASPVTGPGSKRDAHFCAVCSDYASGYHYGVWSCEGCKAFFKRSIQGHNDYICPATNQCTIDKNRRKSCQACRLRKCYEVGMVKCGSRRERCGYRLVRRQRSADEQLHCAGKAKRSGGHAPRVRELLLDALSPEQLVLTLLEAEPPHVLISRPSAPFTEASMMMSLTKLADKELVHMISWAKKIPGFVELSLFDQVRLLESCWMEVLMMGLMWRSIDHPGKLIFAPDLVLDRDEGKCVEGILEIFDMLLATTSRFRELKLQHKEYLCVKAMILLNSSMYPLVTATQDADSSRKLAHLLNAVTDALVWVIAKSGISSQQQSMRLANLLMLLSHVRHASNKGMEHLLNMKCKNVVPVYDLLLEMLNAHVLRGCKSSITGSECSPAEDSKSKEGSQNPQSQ

β/α ratio: [1]
SMILES: C[C@]12CC[C@@H]3c4ccc(O)cc4CC[C@H]3[C@@H]1CC[C@@H]2O [estradiol]
